In patent publication US20100104555A1 one finds Neutralizing activity (IC50), HCVpp and Neutralizing activity (IC50), control pseudotype data, which are given here for one substance.

Sequences of proteins named here, by UniProt entry; tags and fusion partners are left off. Residues count along the entry.
UniProt P26660, 192-750 limits assumed: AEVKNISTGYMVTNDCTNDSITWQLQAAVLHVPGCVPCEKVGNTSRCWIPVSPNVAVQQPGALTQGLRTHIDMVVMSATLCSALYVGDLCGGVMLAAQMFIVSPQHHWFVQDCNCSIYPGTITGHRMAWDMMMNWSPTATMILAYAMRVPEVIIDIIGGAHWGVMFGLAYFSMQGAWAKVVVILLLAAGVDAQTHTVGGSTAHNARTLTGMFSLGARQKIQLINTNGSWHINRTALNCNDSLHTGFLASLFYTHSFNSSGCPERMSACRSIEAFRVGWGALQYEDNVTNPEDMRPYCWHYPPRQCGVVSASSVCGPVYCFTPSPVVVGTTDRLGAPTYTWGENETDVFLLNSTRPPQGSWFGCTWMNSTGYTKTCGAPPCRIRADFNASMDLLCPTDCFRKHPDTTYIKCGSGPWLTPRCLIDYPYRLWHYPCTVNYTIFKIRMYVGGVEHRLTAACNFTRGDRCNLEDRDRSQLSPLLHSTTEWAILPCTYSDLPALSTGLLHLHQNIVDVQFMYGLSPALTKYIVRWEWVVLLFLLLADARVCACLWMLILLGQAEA

Holding throughout (assay): cell-based or functional assay
Assay [1] has as its target E1E2 Env of HCV isolate H (genotype 1a) on HCVpp (hepatitis C virus genotype 1a, isolate H).
The target in assay [2] is E1E2 Env of HCV isolate J6 (genotype 2a) on HCVpp (hepatitis C virus genotype 2a, isolate J6) (UniProt P26660).
For assay [3], the target named is E1E2 Env of HCV isolate OH8 (genotype 1b) on HCVpp (hepatitis C virus genotype 1b, isolate OH8).
The target in assay [4] is E1E2 Env of HCV isolate UKN1B12.16 (genotype 1b) on HCVpp (hepatitis C virus genotype 1b, isolate UKN1B12.16).
In assay [5] the target is E1E2 Env of HCV isolate UKN2A1.2 (genotype 2a) on HCVpp (hepatitis C virus genotype 2a, isolate UKN2A1.2).
Assay [6] addresses E1E2 Env of HCV isolate UKN2B1.1 (genotype 2b) on HCVpp (hepatitis C virus genotype 2b, isolate UKN2B1.1).
The target in assay [7] is E1E2 Env of HCV isolate UKN4.21.16 (genotype 4) on HCVpp (hepatitis C virus genotype 4, isolate UKN4.21.16).
The target of assay [8] is E1E2 Env of HCV isolate UKN5.15.7 (genotype 5) on HCVpp (hepatitis C virus genotype 5, isolate UKN5.15.7).
The target of assay [9] is VSV (control pseudotype virus).

For MAb AR3A (antibody), the Neutralizing activity (IC50), HCVpp in assay [1] amounted to 1 µg/mL; in [2], 10 µg/mL; in assay [3], 5 µg/mL; in assay [4], 1 µg/mL; in assay [5], 10 µg/mL; in [6], 10 µg/mL. For the same substance, the Neutralizing activity (IC50), HCVpp in assay [7] and in [8] was 1 µg/mL throughout. Also, in assay [9], the Neutralizing activity (IC50), control pseudotype is greater than 50 µg/mL.
